# Experimental data published in patent EP4831169A1, “NOVEL COMPOUND USED AS CBP/P300 INHIBITOR, AND PHARMACEUTICAL COMPOSITION FOR PREVENTING OR TREATING CANCER, INFLAMMATORY DISORDERS, OR AUTOIMMUNE DISEASES COMPRISING SAME AS ACTIVE INGREDIENT” (dated 2026).
# The chains behind the UniProt entries cited, without tags or fusion partners. Residues count along the entry.
# UniProt Q92793, 1085-1192 limits assumed: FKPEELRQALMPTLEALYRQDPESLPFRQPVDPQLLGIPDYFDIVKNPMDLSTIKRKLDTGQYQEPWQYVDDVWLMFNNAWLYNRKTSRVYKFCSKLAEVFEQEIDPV
# Experiments:
# CBP BRD protein = CBP BRD protein (Homo sapiens, UniProt Q92793); experiment: CBP bromodomain TR-FRET inhibitory activity assay; details: read-out: CBP BRD IC50, Table 3
# BRD4 (BD1) protein = BRD4 (BD1) protein (Homo sapiens, UniProt O60885); experiment: BRD4 bromodomain TR-FRET inhibitory activity assay; details: read-out: BRD4 (BD1) IC50, Table 4
Compound,IC50 (CBP BRD protein),IC50 (BRD4 (BD1) protein)
Cn1cc(-c2cc3nc(C(C)(C)C)n(-c4cc(N5CCC(=O)CC5)c5c(c4)n(C)c(=O)n5C)c3cc2C(F)F)cn1,< 500 nM,> 5000 nM
Cn1cc(-c2cc3nc(-c4cncn4C)n(-c4ccc5[nH]c(=O)n(C)c5c4)c3cc2F)cn1,500 to 5000 nM,> 5000 nM
Cn1cc(-c2cc3nc(C(C)(C)C)n(-c4cc(C5CCNCC5)c5c(c4)n(C)c(=O)n5C)c3cc2F)cn1,< 500 nM,> 5000 nM
Cn1cc(-c2cc3nc(-c4cncn4C)n(-c4cc(N5CCC(O)CC5)c5c(c4)n(C)c(=O)n5C)c3cc2C(F)F)cn1,< 500 nM,500 to 5000 nM
COC(=O)c1cc2nc(C(C)(C)C)n(-c3cc(N4CCOCC4)c4c(c3)n(C)c(=O)n4C)c2cc1F,< 500 nM,> 5000 nM
CCC(C)Nc1cc(-n2c(-c3cncn3C)nc3cc(-c4cnn(C)c4)c(F)cc32)cc2c1n(C)c(=O)n2C (centres unmarked),< 500 nM,500 to 5000 nM
Cc1ncc(-c2cc3nc(-c4cncn4C)n(-c4cc(OCCN5CCOCC5)c5c(c4)n(C)c(=O)n5C)c3cc2C(F)F)s1,< 500 nM,500 to 5000 nM
CC(O)c1cc(-n2c(-c3cncn3C)nc3cc(-c4cnn(C)c4)c(F)cc32)cc2c1n(C)c(=O)n2C (centres unmarked),500 to 5000 nM,> 5000 nM
C#CC(C)(C)c1nc2cc(-c3cnn(C)c3)c(C(F)(F)F)cc2n1-c1cc(N2CCOCC2)c2c(c1)n(C)c(=O)n2C,< 500 nM,> 5000 nM
CC(C)Oc1cc(-n2c(-c3cncn3C)nc3cc(-c4cnn(C)c4)c(C#N)cc32)cc2c1n(C)c(=O)n2C,< 500 nM,> 5000 nM
Cn1cc(-c2cc3nc(C(C)(C)C)n(-c4cc(C5CCOCC5)c5c(c4)n(C)c(=O)n5C)c3cc2C(F)F)cn1,< 500 nM,> 5000 nM
Cn1cc(-c2cc3nc(-c4cncn4C)n(-c4cc(N5CC6CC(C5)O6)c5c(c4)n(C)c(=O)n5C)c3cc2F)cn1,< 500 nM,> 5000 nM
CN1CCC(Oc2cc(-n3c(C(C)(C)C)nc4cc(-c5cnn(C)c5)c(F)cc43)cc3c2n(C)c(=O)n3C)CC1,< 500 nM,> 5000 nM
Cn1cc(-c2cc3nc(C(C)(C)C)n(-c4cc(NCC(C)(O)CO)c5c(c4)n(C)c(=O)n5C)c3cc2C(F)F)cn1 (centres unmarked),< 500 nM,> 5000 nM
COc1cc2c(cc1-c1cnn(C)c1)nc(-c1cncn1C)n2-c1cc(N2CCOCC2)c2c(c1)n(C)c(=O)n2C,< 500 nM,500 to 5000 nM
Cc1ccc2c(-c3nc4cc(-c5cnn(C)c5)c(C(F)F)cc4n3-c3ccc4c(c3)n(C)c(=O)n4C)c[nH]c2c1,< 500 nM,> 5000 nM

Compound,IC50 (CBP BRD protein),IC50 (BRD4 (BD1) protein)
Cn1cc(-c2cc3nc(-c4cncn4C)n(-c4cc(N5CC(C)(O)C5)c5c(c4)n(C)c(=O)n5C)c3cc2OC(F)(F)F)cn1,< 500 nM,500 to 5000 nM
COc1cc(OC)cc(-c2cc3nc(C(C)(C)C)n(-c4cc(N5CC(C)(O)C5)c5c(c4)n(C)c(=O)n5C)c3cc2C(F)F)c1,< 500 nM,> 5000 nM
CNC(=O)c1ccc(-c2cc3nc(-c4cncn4C)n(-c4cc(N5CCOCC5)c5c(c4)n(C)c(=O)n5C)c3cc2F)cc1F,< 500 nM,500 to 5000 nM
Cn1cc(-c2cc3nc(C(C)(C)C)n(-c4cc(N5CCC(O)C5)c5c(c4)n(C)c(=O)n5C)c3cc2F)cn1 (centres unmarked),< 500 nM,> 5000 nM
Cn1cc(-c2cc3nc(C(C)(C)C)n(-c4cc(OC5CCN(C(=O)OC(C)(C)C)CC5)c5c(c4)n(C)c(=O)n5C)c3cc2F)cn1,< 500 nM,> 5000 nM
CC(=O)Nc1ccc(-c2cc3nc(-c4cncn4C)n(-c4cc(N5CCCC5)c5c(c4)n(C)c(=O)n5C)c3cc2F)cc1,< 500 nM,500 to 5000 nM
COc1ccc(-c2cc(-n3c(C(C)(C)C)nc4cc(-c5cnn(C)c5)c(F)cc43)cc3c2n(C)c(=O)n3C)cc1,< 500 nM,> 5000 nM
Cn1c(=O)n(C)c2c(N3CC(C)(O)C3)cc(-n3c(C(C)(C)C)nc4cc(-c5cnn(CCO)c5)c(C(F)F)cc43)cc21,< 500 nM,> 5000 nM
Cn1cc(-c2cc3nc(-c4cncn4C)n(-c4cc(N5CCC(C)(O)CC5)c5c(c4)n(C)c(=O)n5C)c3cc2C(F)F)cn1,< 500 nM,500 to 5000 nM
Cc1sccc1-c1nc2cc(-c3cnn(C)c3)c(F)cc2n1-c1cc(C(C)C)c2c(c1)n(C)c(=O)n2C,< 500 nM,> 5000 nM
Cc1ncc(-c2cc3nc(-c4cncn4C)n(-c4cc(N5CCOCC5)c5c(c4)n(C)c(=O)n5C)c3cn2)s1,< 500 nM,> 5000 nM
Cc1cccc(-c2nc3cc(-c4cnn(C)c4)c(C(F)F)cc3n2-c2cc(N3CC(C)(O)C3)c3c(c2)n(C)c(=O)n3C)c1C,< 500 nM,500 to 5000 nM
COC1(C)CN(c2cc(-n3c(-c4cncn4C)nc4cc(-c5cnn(C)c5)c(C(F)(F)F)cc43)cc3c2n(C)c(=O)n3C)C1,< 500 nM,500 to 5000 nM
CC(C)c1cc(-n2c(C(C)(C)C)nc3cc(-c4cnn(C)c4)c(F)cc32)cc2c1n(C)c(=O)n2C,< 500 nM,> 5000 nM
CC(C)c1cc(-n2c(C3(C(F)(F)F)CC3)nc3cc(-c4cnn(C)c4)c(F)cc32)cc2c1n(C)c(=O)n2C,> 5000 nM,> 5000 nM
